Like-named read-outs stand apart in the source and are kept apart here.

Protein sequences, listed by entry. Tags and fused reporters are not part of them. Residues count along the entry.
UniProt Q86WJ1, 16-611 limits assumed: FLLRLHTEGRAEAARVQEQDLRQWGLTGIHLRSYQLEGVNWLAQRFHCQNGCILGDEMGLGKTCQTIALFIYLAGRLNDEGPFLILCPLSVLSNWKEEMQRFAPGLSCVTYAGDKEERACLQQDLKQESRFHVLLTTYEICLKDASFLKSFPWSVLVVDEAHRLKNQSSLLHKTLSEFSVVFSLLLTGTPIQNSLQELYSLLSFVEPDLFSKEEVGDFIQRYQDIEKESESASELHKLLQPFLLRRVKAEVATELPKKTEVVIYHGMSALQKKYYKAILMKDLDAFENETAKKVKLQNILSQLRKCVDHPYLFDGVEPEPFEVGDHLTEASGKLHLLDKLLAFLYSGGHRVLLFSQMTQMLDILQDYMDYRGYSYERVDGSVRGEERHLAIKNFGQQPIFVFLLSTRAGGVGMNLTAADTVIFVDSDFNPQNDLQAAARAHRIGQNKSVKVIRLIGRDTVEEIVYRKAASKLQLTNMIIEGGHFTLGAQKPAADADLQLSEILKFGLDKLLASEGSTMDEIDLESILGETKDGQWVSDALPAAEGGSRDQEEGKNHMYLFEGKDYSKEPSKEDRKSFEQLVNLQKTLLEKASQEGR

Experimental findings from patent publication US20230103444A1 (The Regents of the University of Colorado, a Body Corporate, priority 2020, published 2023) are described below.

One data set addresses cat-CHD1L ATPase (Homo sapiens, UniProt Q86WJ1). The data set is described as follows: CHD1L ATPase assay with recombinant catalytic domain (cat-CHD1L). As to conditions: for IC50: read-out: cat-CHD1L inhibition IC50, Table 6; for CHD1L enzyme inhibition, in words: recombinant cat-CHD1L.
Data set [1] is described as follows: Mouse liver microsome stability. Conditions: Table 6.
Data set [2] is described as follows: Human microsomal stability. Type of data set: in vitro ADME. As to conditions: Table 6.
The test system of the next data set is SW620 tumor organoids. The data set is described as follows: Tumor organoid cytotoxicity (CellTiter-Glo 3D). The data set is classed as cell-based, human. (In general: Cellular ATP, detected with luciferase, serves as a proxy for viable cell number.)
The subject of a further data set is HCT116 tumor organoids. The data set is described as follows: Tumor organoid cytotoxicity (CellTiter-Glo 3D). Conditions: read-out: 3 D Cytotoxicity 72 hr IC50 (μM) HCT116; Table 6.
The subject of a further data set is HCT116 M-Phenotype cells. The data set is described as follows: Clonogenic assay, continuous treatment. As to conditions: read-out: colony formation IC50.
For another data set, the system named is SW620 M-Phenotype cells. The data set is described as follows: Clonogenic assay, continuous treatment. Conditions: read-out: colony formation IC50.
Where [3] appears, read: read-out: 3 D Cytotoxicity 72 hr IC50 (μM) SW620, Table 6.

Regarding `Cc1cc(Nc2ccc(NC(=O)Cc3ccc[nH]3)cc2)nc(N2CCCC2)n1`, the IC50 is 2.1 µM at cat-CHD1L ATPase, 6.1 µM with SW620 tumor organoids (setting [3]) and 7.6 µM in the data set with HCT116 tumor organoids. Also, the “CHD1L enzyme inhibition, in words” value at cat-CHD1L ATPase was “good enzyme inhibition”. In addition, in data set [1], the “Microsomal stability Mouse t1/2” value is 1.61 h. Also, the “Microsomal stability Human t1/2” value in data set [2] was 3.3168 h.

For `Cc1cc(Nc2ccc(NC(=O)Cc3cc(Cl)nc4ccccc34)cc2)nc(N2CCCC2)n1`, the IC50 at cat-CHD1L ATPase was found to be 1 µM; in the data set with HCT116 M-Phenotype cells it was 0.2 µM; in the data set with SW620 M-Phenotype cells, 0.3 µM; in the data set with SW620 tumor organoids (setting [3]) it was 2.4 µM; in the data set on SW620 tumor organoids (read-out: Tumor Organoid Cytotoxicity IC50 (μM) SW620, single agent, Table 4A, updated experimental, rounded to one decimal) it was 2.4 µM. The “CHD1L enzyme inhibition, in words” value is “more potent CHD1L inhibitors” at cat-CHD1L ATPase and “good enzyme inhibition” on cat-CHD1L ATPase (listed as 75).

In general, IC50 refers to the concentration at which inhibition is half-maximal.
